These are literature values, as cited in publication PMC7692841.

Amino acid sequences for entries named in this document (tags omitted). A change or cut given only in a name is not applied to a line headed by its entry.
UniProt Q9NXR7: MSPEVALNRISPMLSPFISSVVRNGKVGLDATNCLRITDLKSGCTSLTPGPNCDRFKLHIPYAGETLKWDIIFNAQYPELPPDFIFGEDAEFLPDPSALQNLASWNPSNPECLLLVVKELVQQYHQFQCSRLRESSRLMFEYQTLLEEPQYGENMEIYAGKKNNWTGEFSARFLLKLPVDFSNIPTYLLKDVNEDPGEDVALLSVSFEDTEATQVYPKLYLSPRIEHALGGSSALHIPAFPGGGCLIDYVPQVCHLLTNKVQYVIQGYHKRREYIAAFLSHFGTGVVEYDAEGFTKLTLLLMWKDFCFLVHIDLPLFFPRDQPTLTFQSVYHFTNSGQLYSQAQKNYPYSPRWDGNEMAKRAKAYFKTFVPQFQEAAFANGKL

The series has as its target Ubiquitin (Homo sapiens) (UniProt P0CG48).

As usually defined, the Kd is the equilibrium constant for the complex coming apart. As to “BRE-MERIT40 complex (from UniProt Q9NXR7)”, the Kd is 20 µM.
